“And” between values parts separate entries of the source, which are not always exact repeats. Identical values can stand only once. Only a part is listed here, and it is no random draw. The source made the active and inactive calls.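 The calls were made as follows: active = inhibition of cGAS enzyme activity at or above 60%; inactive = the rest.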
Target: Cyclic GMP-AMP synthase (Mus musculus) (UniProt Q8C6L5)
Test: inhibitors of Mus musculus cyclic GMP-AMP synthase, initial high-throughput assay, cell-free, RapidFire MS (AID 1259397);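 also: enzyme stimulated by 45 bp dsDNA with ATP and GTP substrates; cGAMP share of summed cGAMP plus half ATP and half GTP signals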
Conditions: recombinant mouse cGAS, cGAMP by RapidFire MS; at 12.5 µM; hits give high values

By UniProt entry, the sequences of proteins in these tests, tags left out.
UniProt Q8C6L5, whole entry, looked up: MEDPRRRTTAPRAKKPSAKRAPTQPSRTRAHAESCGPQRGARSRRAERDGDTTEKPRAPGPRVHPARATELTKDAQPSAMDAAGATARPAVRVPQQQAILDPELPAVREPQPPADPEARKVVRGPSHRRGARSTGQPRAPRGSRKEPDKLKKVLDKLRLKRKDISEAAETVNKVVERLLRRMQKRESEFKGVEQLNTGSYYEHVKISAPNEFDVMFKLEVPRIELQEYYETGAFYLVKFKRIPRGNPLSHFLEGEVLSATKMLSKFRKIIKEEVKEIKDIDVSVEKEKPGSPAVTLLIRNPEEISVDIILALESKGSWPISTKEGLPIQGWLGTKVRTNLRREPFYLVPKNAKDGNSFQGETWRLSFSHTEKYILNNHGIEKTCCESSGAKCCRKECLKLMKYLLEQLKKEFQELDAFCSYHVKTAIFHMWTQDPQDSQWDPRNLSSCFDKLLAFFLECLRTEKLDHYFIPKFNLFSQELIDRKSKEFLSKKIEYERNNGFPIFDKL

Row | SMILES | inhibition
1 | CCOP(=O)(NC(=NC(C)c1ccccc1)NC(C)c1ccccc1)OCC (stereo not given) | inactive: 0.307%
2 | CC1CCC(C(C)C)C(OP(=O)(Nc2ccccn2)c2ccccc2)C1 (stereo not given) | inactive: -4.95% and inactive: -10%
3 | Cc1n[n+]2c([nH]c1=O)SCC(Br)C2c1ccccc1 (stereo not given) | inactive: -6.58%
4 | O=C1c2no[n+]([O-])c2C(=O)c2no[n+]([O-])c21 | inactive: 29.4%
5 | CCSP(=O)(c1ccccc1)c1ccccc1 | inactive: -4.08%
6 | CCOP1(=S)c2c(C)nn(CCC#N)c2N=C(c2ccccc2F)N1C (stereo not given) | inactive: -14%
7 | CC(C)N(C(=O)C12CC3CC(C1)CC(P(=O)(Cl)Cl)(C3)C2)C(C)C | inactive: -3.77%
8 | CN1c2ccccc2N2CC(C)(CI)SC12 (stereo not given) | inactive: -0.724%
9 | NC(=O)Nc1ccc([As](=O)(O)O)cc1 | inactive: 4.21%
10 | Cc1ccnc(NP2(=O)C=C(c3ccccc3)OC(c3ccccc3)=C2)c1 | inactive: -9.18%
11 | CN(CCCl)Cc1cc2cc(I)ccc2s1 | inactive: -0.394%
12 | CN1C(=O)C2C(N=C(N3CCOCC3)N2CCc2ccccc2)N(C)C1=O (stereo not given) | inactive: 1.99%
13 | Cc1ccc(NP(=O)(OCC(F)(F)F)OCC(F)(F)F)nc1 | inactive: -2.12%
14 | O=C1OC2C3CC(CC13)C2SC(CCl)C(F)(F)F (stereo not given) | inactive: -1.19%
15 | COc1ccc2nc(NP(=O)(c3ccccc3)c3ccccc3)sc2c1 | inactive: -31.1%
16 | CN(C)C1=C(c2c([N+](=O)[O-])cc([N+](=O)[O-])cc2[N+](=O)[O-])CCCC1 | inactive: -5.9%
17 | O=P(N=c1nc(-c2ccccc2)n(-c2ccccc2)s1)(N1CCOCC1)N1CCOCC1 | inactive: -3.01%
18 | CC(C)NC(=O)NP(=O)(Oc1ccccc1)Oc1ccccc1 | inactive: -1.5%
19 | O=C(OC1CN2CCC1CC2)c1cccc2[nH]cnc12 (stereo not given) | inactive: -5.78%
20 | COP1(=S)N=C2c3ccccc3CN2c2cc(N(C)C)ccc21 (stereo not given) | inactive: -5.56%

Row | SMILES | inhibition
21 | O=C(CBr)c1ccc([N+](=O)[O-])cc1 | inactive: -9.54%
22 | COP1(=S)c2c(C)nn(-c3ccccc3)c2N=C(c2ccccc2)N1C1CC1 (stereo not given) | inactive: -10.2%
23 | O=C(OC1CN2CCC1CC2)C1COc2ccccc2O1 (stereo not given) | inactive: -18.7%
24 | COP(=O)(NS(=O)(=O)c1ccc(Cl)cc1)OC | inactive: 26.7% and inactive: -15.1%
25 | CCCCOP1(=S)N=C2c3ccccc3CN2c2cc(N(C)C)ccc21 (stereo not given) | inactive: -19.1%
26 | CCCCOP(=O)(OCCCC)N(CC)CC | inactive: -12.3%
27 | CCOP1(=S)c2c(C)nn(-c3ccccc3)c2N=C(c2ccccc2)N1C1CC1 (stereo not given) | inactive: -12.2%
28 | CC(C)(C)NC1=NCC(CI)S1 (stereo not given) | inactive: -6.13%
29 | O=C(O[C@H]1CN2CCC1CC2)C1NCc2ccccc2[C@@H]1c1ccccc1 (stereo not given in full) | inactive: 0.863%
30 | CCOP(OCC)N1CCOCC1 | inactive: -21.1%
31 | O=C(NC(Sc1ccncn1)C(Cl)(Cl)Cl)c1ccccc1 (stereo not given) | inactive: -18.9%
32 | O=P(O)(O)F | inactive: -9.04%
33 | CN(C)c1ccc2c(c1)N1Cc3ccccc3C1=NP2(=O)c1ccccc1 (stereo not given) | inactive: -15.1%
34 | O=C(NC1CCS(=O)(=O)C1)NP(=S)(Oc1ccccc1)Oc1ccccc1 (stereo not given) | inactive: 17.7%
35 | O=C(c1cccc([N+](=O)[O-])c1)c1ccc([N+](=O)[O-])c([N+](=O)[O-])c1 | inactive: -8.57%
36 | CC[N+](CC)=C1SC2CS(=O)(=O)C(Br)C2(C)S1 (stereo not given) | inactive: 3.44%
37 | O=C(OC1CN2CCC1CC2)c1ccccc1 (stereo not given) | inactive: -6.04%
38 | CC1CCC(C(C)C)C(OP(=O)(Nc2nccs2)c2ccccc2)C1 (stereo not given) | inactive: -3.17%
39 | O=P(Nc1ccccn1)(c1ccc(Br)cc1)c1ccc(Br)cc1 | inactive: 49%
40 | CCC(C)C(=O)N1CCCC(C(=O)OC2CN3CCC2CC3)C1 (stereo not given) | inactive: -5.65%
